Source: patent US20040152768A1, “NO-synthase inhibitors comprising ascorbyl 2-hexadecanoate” (SOCIETE L'OREAL , S.A., priority 2001, published 2004)

Chains of the proteins cited; added tags and fusions are not shown.
UniProt P35228, whole entry, species assumed: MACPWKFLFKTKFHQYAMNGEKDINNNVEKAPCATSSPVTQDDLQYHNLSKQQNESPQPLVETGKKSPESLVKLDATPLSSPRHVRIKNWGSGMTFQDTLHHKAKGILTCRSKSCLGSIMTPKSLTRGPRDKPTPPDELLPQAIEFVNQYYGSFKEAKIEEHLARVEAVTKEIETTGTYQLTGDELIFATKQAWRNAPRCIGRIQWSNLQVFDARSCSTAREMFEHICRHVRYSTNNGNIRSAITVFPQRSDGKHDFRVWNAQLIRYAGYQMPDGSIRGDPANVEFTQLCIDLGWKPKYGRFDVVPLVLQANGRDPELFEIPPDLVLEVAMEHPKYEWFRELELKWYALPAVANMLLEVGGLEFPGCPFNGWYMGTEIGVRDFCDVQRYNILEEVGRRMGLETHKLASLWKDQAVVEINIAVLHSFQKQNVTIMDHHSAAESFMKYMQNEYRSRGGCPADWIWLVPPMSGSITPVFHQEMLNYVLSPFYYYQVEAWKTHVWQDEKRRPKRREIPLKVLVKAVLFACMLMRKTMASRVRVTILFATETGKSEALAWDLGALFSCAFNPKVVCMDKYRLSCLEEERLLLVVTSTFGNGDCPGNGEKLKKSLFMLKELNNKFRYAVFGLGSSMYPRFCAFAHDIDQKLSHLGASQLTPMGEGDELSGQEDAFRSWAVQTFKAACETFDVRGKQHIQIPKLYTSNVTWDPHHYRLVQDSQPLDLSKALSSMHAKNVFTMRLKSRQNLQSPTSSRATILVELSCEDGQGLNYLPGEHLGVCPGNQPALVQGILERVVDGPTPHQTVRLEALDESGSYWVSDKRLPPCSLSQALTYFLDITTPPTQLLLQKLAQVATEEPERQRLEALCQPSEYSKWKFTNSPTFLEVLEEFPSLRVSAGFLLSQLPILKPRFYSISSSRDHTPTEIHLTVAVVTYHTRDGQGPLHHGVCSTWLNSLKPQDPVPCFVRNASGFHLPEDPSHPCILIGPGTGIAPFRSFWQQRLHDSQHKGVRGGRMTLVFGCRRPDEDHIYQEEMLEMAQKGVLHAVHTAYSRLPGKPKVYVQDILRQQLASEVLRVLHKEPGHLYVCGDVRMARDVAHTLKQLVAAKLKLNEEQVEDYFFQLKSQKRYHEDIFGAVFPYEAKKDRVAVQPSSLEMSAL

Biological target: T1, inducible NO-synthase (NO-synthase 2) (Homo sapiens, UniProt P35228)
T1 construct: positive control (induction of the enzyme): mixtures of interferon-(1000 U/ml) and of interleukin 1-(100 U/ml); endogenous in cells
Experiment: Inhibition of inducible NO-synthase: nitrite/nitrate measured after induction with interferon and interleukin 1 (test of Heck et al.)
Format: cell-based
Details: test product or control at 200 μM, nitrites and nitrates, colorimetric assay
Description: The activity of ascorbyl 2-hexadecanoate on inducible NO-synthase was evaluated in the test described by Heck et al., (J. B. C., Vol. 267, No. 30, 21277-21280, Oct. 25, 1992). The object of this test is to show the reduction in the concentration of nitrate and nitrite, ultimately, after stimulating NO-synthase 2. The following controls were introduced into the tests: A: positive control (induction of the enzyme): mixtures of interferon-(1000 U/ml) and of interleukin 1-(100 U/ml); B: negative control (maximum inhibition): N^g-monomethyl-L-arginine (L form) at 200 μm; C: control of inhibition specificity: N^g-monomethyl-L-arginine (D form) at 200 μm. To determine the activity of the test product, the amount of stable NO reaction products (nitrites and nitrates) is measured using the “nitric colorimetric assay” kit marketed by Boehringer under the reference 1756.28. Ascorbyl 2-hexadecanoate was tested at concentrations of 20 μM, 100 μM and 200 μM in ethanol.

CNC(=N)NCCC[C@H](N)C(=O)O [C, N^g-monomethyl-L-arginine, reference compound]
% Inhibition: 0%

CNC(=N)NCCC[C@H](N)C(=O)O [B, N^g-monomethyl-L-arginine, reference compound]
% Inhibition: 100%
